Results published in patent US3974140A, “Ureidoacetamido-penicillins” (Bayer Aktiengesellschaft, priority 1970, dated 1976).

Tested on: Pseudomon. aer. F 41
Experiment: Surviving mice after intraperitoneal infection and subcutaneous therapy
Type: in vivo, white mice, CF1 strain
Conditions: 30 min before and 2, 4, 6 hours after infection, 1st day
Experimental: The experiments on animals (see Table 3) were carried out with white mice of the CF1 strain. The infection took place intraperitoneally with the particular bacterium indicated.

Measured: Number of surviving mice

CC1(C)S[C@@H]2[C@H](NC(=O)[C@H](NC(=O)N3CCNC3=O)c3ccccc3)C(=O)N2[C@H]1C(=O)O [Example 144 A, D(-)-α-(Imidazolidin-2-on-1-yl-carbonylamino)-benzyl-penicillin]
100%: Dose E = 50,000 units/kg | Dose F = 75,000 units/kg | Dose G = 150,000 units/kg | Dose H = 200,000 units/kg
